Measurements from US11986779B2, “Recrystallized HI-6 dimethylsulfate” (dated 2024).

Columns and labels:
[1] = Solubility determination of HI-6 DMS in solvents and antisolvents
[2] = DSC decomposition onset of recrystallized HI-6 DMS; settings: heating rate 10° C. per minute, samples dried under vacuum 12-16 hours, listed as Unprocessed HI-6

Structure (SMILES): NC(=O)c1cc[n+]([CH-]OC[n+]2ccccc2C=NO)cc1
- Maximum Solubility ([1]; in 1,2-Propane Diol): 2.847 % w/w
- Maximum Solubility ([1]; in Acetonitrile (antisolvent)): 0.124 % w/w
- Maximum Solubility ([1]; in DMF (antisolvent)): 0.1067 % w/w
- Maximum Solubility ([1]; in Dimethyoxy ethane (antisolvent)): 0.338 % w/w
- Maximum Solubility ([1]; in Ethanol (antisolvent)): 0.056 % w/w
- Maximum Solubility ([1]; in Ethylene Glycol): 14.153 % w/w
- Maximum Solubility ([1]; in Isopropyl alcohol (antisolvent)): 0.03 % w/w
- Maximum Solubility ([1]; in Methanol): 7.577 % w/w
- Maximum Solubility ([1]; in Tert-butanol (antisolvent)): 0.257 % w/w
- Maximum Solubility ([1]; in Water): 118.35 % w/w
- Solubility in glycerol ([1]; in glycerol, no saturation point observed, solution became too viscous): highly soluble
- Decomp. (decomposition onset) [2]: 168.87 °C
